# Data taken from US7348413B2, “Cancerous disease modifying antibodies” (Arius Research Inc., priority 2004, dated 2008).
# Legend:
# Assay type in all cases: cell-based
# [1] = test system: panel of cancer and normal cell lines; assay: Live/Dead cytotoxicity assay, panel of cancer and non-cancer cell lines; conditions: example: non-cancer epidermis derived cell line CCD-27sk
# Procedure: (§1) AR40A603.13 was compared to a number of both positive (anti-EGFR (C225, IgG1, kappa, 5 μg/mL, Cedarlane, Homby, ON), cycloheximide (CHX, 0.5 μM, Sigma, Oakville, ON), and NaN3 (0.1%, Sigma, Oakville, ON)) and negative (107.3 (anti-TNP), IgG1, kappa, 20 μg/mL, BD Bioscience, Oakville, ON), and IgG Buffer (3%)) controls in a cytotoxicity assay (FIG. 3). Breast (MDA-MB-231 (MB-231), NCI-MCF-7 (MCF-7)), colon (DLD-1, Lovo, SW1116), ovarian (OVCAR-3), pancreatic (BxPC-3), and prostate (PC-3, LnCap, DU-145) cancer, and non-cancer skin (CCD-27sk), and lung (Hs888.Lu) cell lines were tested (all from the ATCC, Manassas, Va.). […] The data was represented as an average of four experiments tested in triplicate and is presented qualitatively in the following fashion: ¾ to 4/4 experiments with >15% cytotoxicity above background (++++), 2/4 experiments with >15% cytotoxicity above background (+++), at least 2/4 experiments with 10-15% cytotoxicity above background (++), at least 2/4 experiments with 8-10% cytotoxicity above background (+), 7% cytotoxicity above background (+/−). Unmarked cells in FIG. 3 represented inconsistent or effects less than the threshold cytotoxicity. […] The chemical cytotoxic agents induced their expected non-specific cytotoxicity.
# [2] = test system: MCF-7 breast cancer cell line; assay: Live/Dead cytotoxicity assay of purified antibody; conditions: 5 days, anti-EGFR 5 μg/mL
# Procedure: as §1
# [3] = test system: BxPC-3 pancreatic cancer cell line; assay: Live/Dead cytotoxicity assay of purified antibody; conditions: 5 days, anti-EGFR 5 μg/mL
# Procedure: as §1
# [4] = test system: SW1116 colon cancer cell line; assay: Live/Dead cytotoxicity assay of purified antibody; conditions: 5 days, anti-EGFR 5 μg/mL
# Procedure: as §1
substance,measurement,setting,value
"anti-EGFR: positive control antibody anti-EGFR (C225, IgG1, kappa, Cedarlane)",correlation between binding and cytotoxicity,[1],higher correlation between binding and cytotoxicity
same,cytotoxicity relative to isotype and buffer negative controls,[2],not affected
same,cytotoxicity relative to isotype and buffer negative controls,[3],not affected
same,cytotoxicity relative to isotype and buffer negative controls,[4],not affected
